Data from patent publication US8840891 (RSR, dated 2014).
Where two headings read alike, the source gives them in different places.

Legend:
Assay in all cases: cell-based or functional assay
[1] = biological target: wild type human TSHR (human) (UniProt P16473)
[2] = biological target: TSHR with Lys183 mutated to Aspartic acid (human) (UniProt P16473)
[3] = biological target: TSHR with Phe134 mutated to Alanine (human) (UniProt P16473)
[4] = biological target: wild type human TSHR (human) (UniProt P16473); remark: listed apart in the source
[5] = biological target: TSHR with Trp258 mutated to Alanine (human) (UniProt P16473)
[6] = biological target: wild type human TSHR (human) (UniProt P16473); remark: listed apart in the source
[7] = biological target: TSHR with Tyr82 mutated to Alanine (human) (UniProt P16473)
[8] = biological target: wild type human TSHR (human) (UniProt P16473); remark: listed apart in the source
[9] = biological target: TSHR with Lys183 mutated to Alanine (human) (UniProt P16473)
[10] = biological target: wild type human TSHR (human) (UniProt P16473); remark: listed apart in the source
[11] = biological target: TSHR with Arg80 mutated to Alanine (human) (UniProt P16473)
[12] = biological target: wild type human TSHR (human) (UniProt P16473); remark: listed apart in the source
[13] = biological target: wild type human TSHR (human) (UniProt P16473); remark: listed apart in the source
[14] = biological target: TSHR with Ile60 mutated to Alanine (human) (UniProt P16473)
[15] = biological target: human TSHR Asp203Ala, expressed in CHO cells (human) (UniProt P16473)
[16] = biological target: human TSHR (wild type) expressed in CHO cells (human) (UniProt P16473)
[17] = biological target: human TSHR with Asp276 mutated to Alanine, expressed in CHO cells (human) (UniProt P16473)
[18] = biological target: TSHR with Lys58 mutated to Alanine (human) (UniProt P16473)
[19] = biological target: wild type human TSHR (human) (UniProt P16473); remark: listed apart in the source
[20] = biological target: TSHR with Arg255 mutated to Aspartic acid (human) (UniProt P16473)
[21] = biological target: wild type human TSHR (human) (UniProt P16473); remark: listed apart in the source
[22] = biological target: TSHR with Asp151 mutated to Alanine (human) (UniProt P16473)
[23] = biological target: wild type human TSHR (human) (UniProt P16473); remark: listed apart in the source
[24] = biological target: wild type human TSHR (human) (UniProt P16473); remark: listed apart in the source
[25] = biological target: TSHR with Ser281 mutated to Alanine (human) (UniProt P16473)
[26] = biological target: TSHR with Lys129 mutated to Alanine (human) (UniProt P16473)
[27] = biological target: wild type human TSHR (human) (UniProt P16473); remark: listed apart in the source
[28] = biological target: TSHR with Gln235 mutated to Alanine (human) (UniProt P16473)
[29] = biological target: wild type human TSHR (human) (UniProt P16473); remark: listed apart in the source
[30] = biological target: TSHR with Thr104 mutated to Alanine (human) (UniProt P16473)
[31] = biological target: wild type human TSHR (human) (UniProt P16473); remark: listed apart in the source
[32] = biological target: TSHR with Arg80 mutated to Aspartic acid (human) (UniProt P16473)
[33] = biological target: wild type human TSHR (human) (UniProt P16473); remark: listed apart in the source
[34] = biological target: TSHR with Arg109 mutated to Alanine (human) (UniProt P16473)
[35] = biological target: wild type human TSHR (human) (UniProt P16473); remark: listed apart in the source
[36] = biological target: TSHR with Asp151 mutated to Arginine (human) (UniProt P16473)
[37] = biological target: wild type human TSHR (human) (UniProt P16473); remark: listed apart in the source
[38] = biological target: TSHR with Arg255 mutated to Alanine (human) (UniProt P16473)
[39] = biological target: wild type human TSHR (human) (UniProt P16473); remark: listed apart in the source

Substance: porcine TSH (from UniProt P01219 25-120; P01224 21-132) (ligand)
- cyclic AMP; TSH 3 ng/mL only (fmol/cell well) [1]: 14700
- Mutated/wild type (%); TSH only [2]: 120%
- cyclic AMP; TSH 3 ng/mL only (fmol/cell well) [2]: 17700
- Mutated/wild type (%); TSH only [3]: 88%
- cyclic AMP; TSH 3 ng/mL only (fmol/cell well) [3]: 15500
- cyclic AMP; TSH 3 ng/mL only (fmol/cell well) [4]: 17600
- Mutated/wild type (%); TSH only [5]: 33%
- cyclic AMP; TSH 3 ng/mL only (fmol/cell well) [5]: 7100
- cyclic AMP; TSH 3 ng/mL only (fmol/cell well) [6]: 21000
- Mutated/wild type (%); TSH only [7]: 121%
- cyclic AMP; TSH 3 ng/mL only (fmol/cell well) [7]: 15300
- cyclic AMP; TSH 3 ng/mL only (fmol/cell well) [8]: 12700
- Mutated/wild type (%); TSH only [9]: 90%
- cyclic AMP; TSH 3 ng/mL only (fmol/cell well) [9]: 20200
- cyclic AMP; TSH 3 ng/mL only (fmol/cell well) [10]: 22400
- Mutated/wild type (%); TSH only [11]: 104%
- cyclic AMP; TSH 3 ng/mL only (fmol/cell well) [11]: 12900
- cyclic AMP; TSH 3 ng/mL only (fmol/cell well) [12]: 12500
- cyclic AMP; TSH 3 ng/mL only (fmol/cell well) [13]: 18700
- Mutated/wild type (%); TSH only [14]: 123%
- cyclic AMP; TSH 3 ng/mL only (fmol/cell well) [14]: 22900
- cyclic AMP concentration; pTSH 3 ng/mL alone (fmol/cell well) [15]: 7590
- Cyclic AMP produced; TSH only (pTSH 3 ng/mL); Experiment 1 (fmol/cell well) [16]: 17500
- Cyclic AMP produced; TSH only (pTSH 3 ng/mL); Experiment 2 (fmol/cell well) [16]: 13900
- cyclic AMP concentration; pTSH 3 ng/mL alone (fmol/cell well) [16]: 9360
- cyclic AMP production; pTSH 3 ng/mL only (fmol/cell well) [16]: 12300
- cyclic AMP; Example 1; TSH 3 ng/mL only (fmol/cell well) [16]: 18600
- cyclic AMP; Example 2; TSH 3 ng/mL only (fmol/cell well) [16]: 19400
- cyclic AMP; pTSH (3 ng/mL) only (fmol/cell well) [16]: 19000
- Cyclic AMP produced; TSH only (pTSH 3 ng/mL); Experiment 1 (fmol/cell well) [17]: 22400
- Cyclic AMP produced; TSH only (pTSH 3 ng/mL); Experiment 2 (fmol/cell well) [17]: 14600
- Mutated/wild type (%) of cyclic AMP; TSH only (pTSH 3 ng/mL); Experiment 1 [17]: 128%
- Mutated/wild type (%) of cyclic AMP; TSH only (pTSH 3 ng/mL); Experiment 2 [17]: 106%
- Mutated/wild type (%); TSH only [18]: 123%
- cyclic AMP; TSH 3 ng/mL only (fmol/cell well) [18]: 13200
- cyclic AMP; TSH 3 ng/mL only (fmol/cell well) [19]: 10700
- Mutated/wild type (%); TSH only [20]: 103%
- cyclic AMP; TSH 3 ng/mL only (fmol/cell well) [20]: 18100
- cyclic AMP; TSH 3 ng/mL only (fmol/cell well) [21]: 17500
- Mutated/wild type (%); TSH only [22]: 93%
- cyclic AMP; TSH 3 ng/mL only (fmol/cell well) [22]: 10500
- cyclic AMP; TSH 3 ng/mL only (fmol/cell well) [23]: 11300
- cyclic AMP; TSH 3 ng/mL only (fmol/cell well) [24]: 13600
- Mutated/wild type (%); TSH only [25]: 195%
- cyclic AMP; TSH 3 ng/mL only (fmol/cell well) [25]: 26400
- Mutated/wild type (%); TSH only [26]: 99%
- cyclic AMP; TSH 3 ng/mL only (fmol/cell well) [26]: 15500
- cyclic AMP; TSH 3 ng/mL only (fmol/cell well) [27]: 15600
- Mutated/wild type (%); TSH only [28]: 106%
- cyclic AMP; TSH 3 ng/mL only (fmol/cell well) [28]: 15800
- cyclic AMP; TSH 3 ng/mL only (fmol/cell well) [29]: 14900
- Mutated/wild type (%); TSH only [30]: 126%
- cyclic AMP; TSH 3 ng/mL only (fmol/cell well) [30]: 14200
- cyclic AMP; TSH 3 ng/mL only (fmol/cell well) [31]: 11300
- Mutated/wild type (%); TSH only [32]: 143%
- cyclic AMP; TSH 3 ng/mL only (fmol/cell well) [32]: 19400
- cyclic AMP; TSH 3 ng/mL only (fmol/cell well) [33]: 13600
- Mutated/wild type (%); TSH only [34]: 71%
- cyclic AMP; TSH 3 ng/mL only (fmol/cell well) [34]: 9770
- cyclic AMP; TSH 3 ng/mL only (fmol/cell well) [35]: 13800
- Mutated/wild type (%); TSH only [36]: 180%
- cyclic AMP; TSH 3 ng/mL only (fmol/cell well) [36]: 20000
- cyclic AMP; TSH 3 ng/mL only (fmol/cell well) [37]: 11100
- Mutated/wild type (%); TSH only [38]: 106%
- cyclic AMP; TSH 3 ng/mL only (fmol/cell well) [38]: 15200
- cyclic AMP; TSH 3 ng/mL only (fmol/cell well) [39]: 14400
